Values of other authors as cited in US10160747B2, “Compounds and methods for kinase modulation, and indications therefor” (Plexxikon Inc., priority 2016, dated 2018).

Test system: relapsed or chemotherapy-refractory FLT3-ITD+AML patients
Settings: phase II monotherapy; cited from earlier work

## CC(C)(C)c1cc(NC(=O)Nc2ccc(-c3cn4c(n3)sc3cc(OCCN5CCOCC5)ccc34)cc2)no1 [quizartinib]
  composite complete remission (CRc) rate: about 50%
